PubChem BioAssay (NCATS)
Only a part is listed here, and it is no random draw. Results filed as inconclusive are left out. Activity calls are given as the source filed them. Unless noted, the call rests on the fitted dose curve; in most records, active means well fitted curve in the direction sought with a large enough effect; inconclusive means small, poorly fitted or top-dose-only effect, or another doubt; inactive means no such curve, though single readings can be large; an effect the other way counts as inactive or inconclusive.

Sequences of proteins named here, by UniProt entry; tags and fusion partners are left off. A change or cut given only in a name is not applied to a line headed by its entry.
UniProt P27695, whole entry, looked up: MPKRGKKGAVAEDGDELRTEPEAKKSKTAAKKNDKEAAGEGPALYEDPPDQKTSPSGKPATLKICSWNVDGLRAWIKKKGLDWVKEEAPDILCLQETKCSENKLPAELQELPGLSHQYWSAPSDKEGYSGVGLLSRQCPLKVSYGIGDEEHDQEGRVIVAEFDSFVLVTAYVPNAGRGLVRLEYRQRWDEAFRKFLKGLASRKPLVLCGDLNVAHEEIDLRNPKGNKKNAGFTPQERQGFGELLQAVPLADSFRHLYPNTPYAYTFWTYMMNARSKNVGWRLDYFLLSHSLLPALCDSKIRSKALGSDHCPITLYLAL
UniProt P02791: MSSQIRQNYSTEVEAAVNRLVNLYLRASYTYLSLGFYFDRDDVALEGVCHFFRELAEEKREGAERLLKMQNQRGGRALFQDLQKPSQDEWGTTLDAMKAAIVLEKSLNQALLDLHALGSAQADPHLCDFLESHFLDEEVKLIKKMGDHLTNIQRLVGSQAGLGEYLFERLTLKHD
UniProt P46063: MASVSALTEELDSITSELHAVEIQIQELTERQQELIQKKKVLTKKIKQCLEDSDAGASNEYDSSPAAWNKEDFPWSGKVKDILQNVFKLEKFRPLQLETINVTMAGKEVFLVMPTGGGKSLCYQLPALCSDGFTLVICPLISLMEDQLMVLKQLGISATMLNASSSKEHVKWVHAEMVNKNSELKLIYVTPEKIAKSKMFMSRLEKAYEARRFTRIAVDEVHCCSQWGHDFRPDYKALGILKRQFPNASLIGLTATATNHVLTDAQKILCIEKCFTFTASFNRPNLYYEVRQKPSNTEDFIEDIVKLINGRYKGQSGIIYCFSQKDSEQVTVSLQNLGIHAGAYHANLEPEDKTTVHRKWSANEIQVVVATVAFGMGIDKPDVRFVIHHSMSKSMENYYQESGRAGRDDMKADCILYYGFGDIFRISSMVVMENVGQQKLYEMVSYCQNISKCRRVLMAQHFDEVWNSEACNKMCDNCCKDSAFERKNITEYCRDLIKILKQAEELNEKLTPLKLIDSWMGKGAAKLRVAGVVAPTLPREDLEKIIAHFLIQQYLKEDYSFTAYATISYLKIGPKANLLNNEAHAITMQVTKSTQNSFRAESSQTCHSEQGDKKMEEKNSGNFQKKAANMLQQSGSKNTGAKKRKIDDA
UniProt P54132: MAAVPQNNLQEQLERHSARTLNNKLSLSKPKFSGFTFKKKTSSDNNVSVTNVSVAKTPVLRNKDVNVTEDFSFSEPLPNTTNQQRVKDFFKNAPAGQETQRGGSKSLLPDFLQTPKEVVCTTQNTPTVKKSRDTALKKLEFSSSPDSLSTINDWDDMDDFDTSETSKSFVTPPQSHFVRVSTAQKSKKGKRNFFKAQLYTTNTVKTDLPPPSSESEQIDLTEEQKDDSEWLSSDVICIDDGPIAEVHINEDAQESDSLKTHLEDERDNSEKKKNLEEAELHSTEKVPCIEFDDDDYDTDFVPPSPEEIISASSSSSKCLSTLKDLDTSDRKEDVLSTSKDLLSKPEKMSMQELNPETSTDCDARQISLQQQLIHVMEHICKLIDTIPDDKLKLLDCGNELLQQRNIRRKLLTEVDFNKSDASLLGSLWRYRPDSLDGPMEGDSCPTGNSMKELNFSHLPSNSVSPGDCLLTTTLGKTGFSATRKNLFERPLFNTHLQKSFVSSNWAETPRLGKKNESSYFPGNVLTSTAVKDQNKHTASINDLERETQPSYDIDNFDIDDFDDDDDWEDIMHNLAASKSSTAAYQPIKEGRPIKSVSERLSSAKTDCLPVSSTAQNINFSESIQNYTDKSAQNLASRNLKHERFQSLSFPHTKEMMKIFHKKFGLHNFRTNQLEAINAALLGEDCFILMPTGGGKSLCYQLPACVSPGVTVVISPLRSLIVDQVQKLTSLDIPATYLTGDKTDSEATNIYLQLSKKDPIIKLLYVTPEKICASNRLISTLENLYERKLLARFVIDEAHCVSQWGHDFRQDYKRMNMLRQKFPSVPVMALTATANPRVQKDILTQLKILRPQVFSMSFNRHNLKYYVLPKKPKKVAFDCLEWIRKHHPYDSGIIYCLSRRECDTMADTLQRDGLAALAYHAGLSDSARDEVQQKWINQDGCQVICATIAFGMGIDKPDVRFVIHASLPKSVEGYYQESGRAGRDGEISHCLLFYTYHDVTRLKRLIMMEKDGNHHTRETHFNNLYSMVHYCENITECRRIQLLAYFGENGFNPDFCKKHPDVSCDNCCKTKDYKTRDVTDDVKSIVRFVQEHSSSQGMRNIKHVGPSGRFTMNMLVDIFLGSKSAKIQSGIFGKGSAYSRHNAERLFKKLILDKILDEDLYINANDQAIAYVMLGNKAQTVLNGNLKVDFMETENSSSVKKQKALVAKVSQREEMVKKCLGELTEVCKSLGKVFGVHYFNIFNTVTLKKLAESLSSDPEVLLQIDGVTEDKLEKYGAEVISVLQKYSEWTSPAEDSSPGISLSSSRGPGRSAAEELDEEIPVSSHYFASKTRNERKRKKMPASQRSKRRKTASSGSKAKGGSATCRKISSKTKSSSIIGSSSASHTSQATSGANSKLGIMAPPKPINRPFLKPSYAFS
UniProt O75604: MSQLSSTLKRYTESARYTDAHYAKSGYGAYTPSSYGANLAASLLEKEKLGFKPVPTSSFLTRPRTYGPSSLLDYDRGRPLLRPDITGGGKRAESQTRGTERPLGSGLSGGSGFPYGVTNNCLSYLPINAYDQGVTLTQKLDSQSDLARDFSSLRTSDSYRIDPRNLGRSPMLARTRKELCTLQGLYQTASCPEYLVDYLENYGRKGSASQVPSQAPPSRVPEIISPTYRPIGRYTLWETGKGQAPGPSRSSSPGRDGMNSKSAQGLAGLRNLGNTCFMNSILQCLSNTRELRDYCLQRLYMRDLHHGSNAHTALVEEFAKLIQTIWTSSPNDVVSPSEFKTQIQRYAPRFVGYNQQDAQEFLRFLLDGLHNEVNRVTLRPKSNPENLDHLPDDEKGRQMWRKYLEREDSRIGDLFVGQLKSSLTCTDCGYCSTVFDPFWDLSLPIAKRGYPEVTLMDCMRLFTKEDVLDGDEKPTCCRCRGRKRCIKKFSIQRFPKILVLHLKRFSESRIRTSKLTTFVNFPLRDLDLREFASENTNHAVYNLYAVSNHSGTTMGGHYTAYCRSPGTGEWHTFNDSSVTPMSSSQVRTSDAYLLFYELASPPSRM
UniProt O89049, whole entry, looked up: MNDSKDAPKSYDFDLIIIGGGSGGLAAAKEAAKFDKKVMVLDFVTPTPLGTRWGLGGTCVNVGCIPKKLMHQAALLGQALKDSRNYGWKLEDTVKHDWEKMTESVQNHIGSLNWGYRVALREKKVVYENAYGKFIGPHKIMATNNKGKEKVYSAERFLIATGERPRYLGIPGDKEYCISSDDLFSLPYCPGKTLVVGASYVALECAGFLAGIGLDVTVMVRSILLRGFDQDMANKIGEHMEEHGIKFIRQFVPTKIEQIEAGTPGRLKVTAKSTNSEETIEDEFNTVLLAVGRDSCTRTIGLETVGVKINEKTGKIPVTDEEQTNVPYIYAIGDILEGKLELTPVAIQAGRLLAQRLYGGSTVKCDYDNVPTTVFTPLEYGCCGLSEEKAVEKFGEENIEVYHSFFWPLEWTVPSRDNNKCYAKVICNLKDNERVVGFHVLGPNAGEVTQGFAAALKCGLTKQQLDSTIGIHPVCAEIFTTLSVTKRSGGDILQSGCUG

How the values were obtained:
[1] = Validation of Assay for Modulators of Lamin A Splicing (AID 1459; active means well fitted curve in the direction sought with a large enough effect in the signal ratio; the % refers to the signal ratio;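 further: cells exposed to compound for two days before reading; 0% is about no effect; ratio rise marks activators and ratio drop marks inhibitors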); conditions: Lamin A splicing dual RFP/GFP fluorescence reporter; at 9.22 µM (top of the series)
In short: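 Splicing correction read as GFP (500-530 nm) over DsRed2 (575-640 nm) object intensity after 48 h compound exposure of reporter HeLa S3 clones (600 cells/well, 2% FBS medium); ancitabine and cycloheximide titrations, 0.5% DMSO as vehicle.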

[2] = qHTS Assay for Lipid Storage Modulators (AID 1519; calls by dose curve; further: on the % scale 0 is the no-effect control and ±100 the full control effect); conditions: Drosophila S3 cells, BODIPY lipid droplet/cell ratio, laser cytometry, cells loaded with oleic acid; at 57.5 µM (top of the series)
[3] = target: DNA repair nuclease/redox regulator APEX1 (Homo sapiens) (UniProt P27695); experiment: qHTS Validation Assay for Inhibitors of the Human Apurinic/apyrimidinic Endonuclease 1 (APE1) (AID 1705;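 further: TAMRA fluorescence gain over two minutes as APE1 cuts a quenched THF abasic duplex; on the % scale 0 is the no-effect control and ±100 the full control effect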); conditions: purified APE1 endonuclease activity, fluorescence, titration; at 57.1 µM (top of the series)
In short: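 Activity read as rising fluorescence (598 nm emission, 525 nm excitation) from incision of a TAMRA/BHQ-2 duplex carrying a THF abasic site (50 nM). Compound and enzyme sat 15 min at RT before substrate start; signal change between first and third 60-s reads.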

[4] = Counterscreen for APE1 Inhibitors: Fluorescent Dye Displacement Validation Assay (AID 1707); conditions: fluorescent dye displacement from DNA; at 57.1 µM (top of the series);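 further: plate controls were ThO with dsDNA and no compound for no effect and ThO without dsDNA for full effect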
In short: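 ThO 250 nM + dsDNA 50 nM (THF abasic site, 5'-TAMRA), Tris-HCl pH7.5/50mM NaCl/2 mM MgCl2/0.01% Tween-20; compounds pin-transferred; ex 480/em 540 nm endpoint. Neutral = no compound; no-DNA ThO wells = negative control.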

[5] = target: Ferritin light chain (Equus caballus) (UniProt P02791); experiment: qHTS Validation Assay for Identification of Novel General Anesthetics (AID 2323); conditions: horse apoferritin, anesthetic-site fluorescent probe displacement; at 76.9 µM (top of the series); further: on the % scale 0 is the no-effect control and ±100 the full control effect
In short: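 Competitive displacement of the profluorescent anesthetic 1-AMA (50% saturated, PBS) from 10 uM apoferritin, 10 min, room temperature. Activity is normalized 380/535 nm fluorescence; concentration-response fitted with a four-parameter Hill equation.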

[6] = target: ATP-dependent DNA helicase Q1 (Homo sapiens) (UniProt P46063); experiment: qHTS Validation Assay for Inhibitors of RecQ-Like Dna Helicase 1 (RECQ1) (AID 2353); conditions: recombinant RECQ1 helicase DNA unwinding assay; at 25.6 µM (top of the series);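 further: plate controls were DMSO vehicle for no effect and enzyme-free control for full effect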
In short: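 50 nM RECQ1T1 preincubated 15 min with compound in Tris pH 8.0 buffer with MgCl2, DTT, Tween-20 and 2.5 ug/ml poly(dI-dC); started with 200 nM TAMRA/BHQ-2 forked duplex and 2 mM ATP. Unwinding read as fluorescence (525/598 nm), two reads 2 h apart.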

[7] = target: RecQ-like DNA helicase BLM (Homo sapiens) (UniProt P54132); experiment: qHTS Validation Assay for Inhibitors of Bloom's syndrome helicase (BLM) (AID 2364); conditions: BLM helicase DNA unwinding, fluorescence, in vitro; at 57.1 µM (top of the series);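 further: plate controls were DMSO vehicle for no effect and enzyme-free control for full effect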
[8] = Cytometric Cell-Based qHTS for Inhibitors of the mTORC1 Signaling Pathway in MEF (Tsc2-/-, p53-/-) Cells (AID 2660); conditions: mTORC1 pathway cytometry; at 38.3 µM (top of the series);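 further: Tsc2 and p53 null MEFs carrying empty vector with compound for 24 h; percent of cells above a phospho-rpS6 to PI ratio cutoff in each well; plate controls were DMSO for no effect and rapamycin for full effect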
In short: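 Percent of cells positive for normalized phospho-S6 staining is reported, with the cutoff set from rapamycin (7.5 nM) versus DMSO wells. Tsc2-/-, p53-/- MEFs received compound for 24 hrs.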

[9] = High Content Imaging Cell-Based qHTS for Inhibitors of the mTORC1 Signaling Pathway in MEF (Tsc2-/-, p53-/-) Cells (AID 2666); conditions: at 38.3 µM (top of the series);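 further: percent of cells scored positive for phospho-rpS6 Ser235/236 immunostaining by imaging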
In short: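 Cells were plated, dosed with compound after 24 hrs, and incubated another 24 hrs at 37 degree Celsius. Fixed cells were immunostained for phospho-rpS6 Ser235/236 and counterstained, and the normalized signal was scored as % active cells against rapamycin and DMSO controls.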

[10] = High Content Imaging Cell-Based qHTS for Inhibitors of the mTORC1 Signaling Pathway in MEF Cells (AID 2667); conditions: at 38.3 µM (top of the series);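 further: Tsc2-/- p53-/- MEFs stably re-expressing wild-type Tsc2 exposed 24 h; plate controls were DMSO wells for no effect and rapamycin control wells for full effect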
In short: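 Immunofluorescence for rpS6 phosphorylation in MEFs of Tsc2-/-, p53-/- background rescued with WT Tsc2. Compound exposure lasted 24 hrs. Inhibition was scored against rapamycin-treated control wells.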

[11] = Cytometry Cell-Based qHTS for Inhibitors of the mTORC1 Signaling Pathway in MEF cells (AID 2668); conditions: mTORC1 pathway readout; at 38.3 µM (top of the series);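 further: Tsc2-/- p53-/- mouse embryonic fibroblasts stably re-expressing wild-type Tsc2; percent cells positive for phospho-rpS6 Ser235/236 relative to propidium iodide stain; plate controls were DMSO wells for no effect and 7.5 nM rapamycin control wells for full effect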
In short: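 Phospho-rpS6 (Ser235/236) immunofluorescence over PI signal, scored as % positive cells using thresholds from 7.5 nM rapamycin and DMSO wells, after 24 h compound exposure of WT-Tsc2-rescued Tsc2-/-, p53-/- MEFs. PI cell count recorded for viability.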

[12] = Validation screen for small molecules that induce DNA re-replication in MCF 10A normal breast cells (AID 463097); conditions: MCF 10A cells, DNA re-replication phenotype imaging; at 46.1 µM (top of the series); further: 0% is about no effect; nearly all actives have a fitted effect of over 60% in size
In short: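 Read-out is Hoechst total nuclear intensity by fluorescence scanning imager, flagging increased high-DNA-content nuclei. Compounds were incubated with MCF 10A cells for 48 hr (37 C, 5% CO2) before 40 min staining.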

[13] = target: Ubiquitin carboxyl-terminal hydrolase 2 (Homo sapiens) (UniProt O75604); experiment: qHTS Validation Assay for Inhibitors of Ubiquitin-specific Protease USP2a Using CHOP2 as the Reporter (AID 463106); conditions: USP2a cleavage of CHOP2 reporter, enzymatic; at 38.3 µM (top of the series);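 further: plate controls were DMSO for no effect and full inhibition by NEM for full effect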
In short: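 10nM USP2 core + cpd, 30min RT; add 25nM Ub-CHOP2/25nM substrate; 60min RT; FI 485/531nm. Buffer Tris pH 8.0, CaCl2, BME, CHAPS. Norm. to NEM = 100% inhibition; time-zero read flags fluorescent artifacts.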

[14] = target: Beta-2 adrenergic receptor (Homo sapiens) (UniProt P07550); experiment: qHTS validation assay of beta-arrestin-biased ligands of beta2-adrenergic receptor (AID 485366); conditions: cell-based beta-arrestin recruitment to ADRB2, qHTS; at 46.1 µM (top of the series); further: 0% is about no effect
In short: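 Luminescence from a tTA-responsive luciferase, induced when recombinant beta-arrestin is recruited to recombinant beta2-AR, served as the agonism signal. Cells were exposed to compound for 18 hr at 37 degrees C; titrations spanned up to 46 microM.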

[15] = target: Thioredoxin reductase 1, cytoplasmic (Rattus norvegicus) (UniProt O89049); experiment: qHTS Assay for Inhibitors of Mammalian Selenoprotein Thioredoxin Reductase 1 (TrxR1) (AID 488773); conditions: purified TrxR1 enzyme activity; at 57.1 µM (top of the series);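 further: drop in NADPH fluorescence over an 8 min run after selenite addition; on the % scale 0 is the no-effect control and ±100 the full control effect; nearly all actives have a fitted effect of over 40% in size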
In short: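 Steps: enzyme (90 nM) plus NADPH (400 uM final), 5 min at ~22 deg C; compound added, 15 min; selenite (400 uM final) added; fluorescence followed for 8 min. Concentration-response curves derived from the normalized delta values.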

CN(C(=O)Cc1ccc(Cl)c(Cl)c1)[C@@H]1CC[C@]2(CCCO2)C[C@H]1N1CCCC1
inactive: ratio change, both ways [1] 2.6% | activity change, negative = inhibition [2] -0.5% | activity change, negative = inhibition [3] -12.4% | activity change, negative = inhibition [4] 2.78% | activity change, negative = inhibition [5] -10.4% | activity change, negative = inhibition [6] -3.78% | activity change, negative = inhibition [7] -9.2% | activity change, negative = inhibition [8] -0.152% | outcome [9] | activity change, negative = inhibition [10] -100% | activity change, negative = inhibition [11] -3.64% | re-replication induction [12] 3.06% | activity, negative = inhibition [13] 3.62% | activation [14] 0.498% | activity change, negative = inhibition [15] 8.72%
